Measurements from ChEMBL document CHEMBL1201862, “PubChem BioAssay data set” (2004).

Tested on: NCI-H23
Assay: inhibition of tumour cell growth, NCI panel, 48 h

SMILES: CC1C(=O)C(C)C(c2ccccc2)N(C)C1c1ccccc1 (stereo unspecified)
- GI50: inactive: 70.1 µM

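Growth conditions: 96-well plates. Treatment: test compound, 48 hours, 5 concentrations. Analysis: linear interpolation between bracketing concentrations; unreached endpoints set to highest concentration. Abbreviation: GI50, concentration required for 50% inhibition of growth.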 Calls of active or inactive are those of the source. No stated cut-off is given here; in the data, active = GI50 up to about 1.1 µM and inactive = higher.
